Experimental data reported in PubChem BioAssay AID602449 (Sanford-Burnham Center for Chemical Genomics, 2012).
Only a part is listed here, and it is no random draw. Calls of active or inactive are those of the source.

Experiment: blockers of Ca2+-induced mitochondrial swelling – biochemical, isolated mouse mitochondria, absorbance, primary screen (AID 602449);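 note: 0% = DMSO wells given calcium and 100% = 1 mM EGTA wells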
Conditions: 30 min, at 10 µM, hits give high values

| Compound | inhibition |
| --- | --- |
| CCC(=O)N(c1ccccc1)C1(COC)CCN(CCn2nnn(CC)c2=O)CC1 | inactive: -0.9% |
| CCC(=O)N(c1ccccc1)C1(COC)CCN(CCc2cccs2)CC1 | inactive: -0.6% |
